{
  "source": "PubChem BioAssay AID602340",
  "about": "(Broad Institute, 2012)",
  "note": "Only a part is listed here, and it is no random draw. The source made the active and inactive calls.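 How the source made its calls: active means mean ATP rescue above about 67%, or every replicate alone reaching that limit (limit read from the data, passing the limit was not always enough); inconclusive means no clear call, values can overlap the other calls; inactive means mean under the limit and some replicate under it.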",
  "data": [
    {"test": "suppressors of statin myotoxicity in C2C12 myotubes, primary screen, cell-based, single point, plate reader (AID 602340);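 further: myotubes were challenged with 10 µM simvastatin during compound exposure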", "conditions": "C2C12 myotubes + simvastatin, ATP luminescence, 48 h; at 7.49 µM; active compounds read high; scaled: DMSO 0, geranylgeraniol control 100", "values": [
      {"smiles": "CCC(=O)N(c1ccccc1)C1(COC)CCN(CCc2cccs2)CC1", "rescue of ATP level": "inactive: 7.81%"},
      {"smiles": "CCC(=O)N(c1ccccc1)C1(COC)CCN(CCn2nnn(CC)c2=O)CC1", "rescue of ATP level": "inactive: 0.402%"}
    ]}
  ]
}
